Consider 2 molecules from patent publication US7101896B2, “Pharmaceutical compositions and methods for use” (Targacept, Inc., priority 1999, dated 2006).

Amino acid sequences for entries named in this document (tags omitted). Residues count along the entry.
UniProt P09483, 31-630 limits assumed: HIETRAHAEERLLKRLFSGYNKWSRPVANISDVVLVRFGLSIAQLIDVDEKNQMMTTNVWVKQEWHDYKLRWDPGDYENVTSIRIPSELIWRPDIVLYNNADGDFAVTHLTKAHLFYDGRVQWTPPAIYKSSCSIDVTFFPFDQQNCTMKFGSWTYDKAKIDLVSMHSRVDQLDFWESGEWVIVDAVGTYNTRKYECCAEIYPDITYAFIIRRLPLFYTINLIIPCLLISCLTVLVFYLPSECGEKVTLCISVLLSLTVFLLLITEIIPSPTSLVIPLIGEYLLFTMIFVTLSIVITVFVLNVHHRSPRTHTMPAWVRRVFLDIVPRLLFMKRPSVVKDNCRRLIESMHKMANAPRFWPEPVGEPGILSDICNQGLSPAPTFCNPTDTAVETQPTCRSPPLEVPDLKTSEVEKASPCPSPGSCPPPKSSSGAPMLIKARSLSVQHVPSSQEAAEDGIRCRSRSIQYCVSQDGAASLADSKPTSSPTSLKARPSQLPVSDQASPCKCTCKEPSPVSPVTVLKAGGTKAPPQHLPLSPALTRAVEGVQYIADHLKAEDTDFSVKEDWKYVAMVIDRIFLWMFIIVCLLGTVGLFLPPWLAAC
UniProt P12390, 25-500 limits assumed: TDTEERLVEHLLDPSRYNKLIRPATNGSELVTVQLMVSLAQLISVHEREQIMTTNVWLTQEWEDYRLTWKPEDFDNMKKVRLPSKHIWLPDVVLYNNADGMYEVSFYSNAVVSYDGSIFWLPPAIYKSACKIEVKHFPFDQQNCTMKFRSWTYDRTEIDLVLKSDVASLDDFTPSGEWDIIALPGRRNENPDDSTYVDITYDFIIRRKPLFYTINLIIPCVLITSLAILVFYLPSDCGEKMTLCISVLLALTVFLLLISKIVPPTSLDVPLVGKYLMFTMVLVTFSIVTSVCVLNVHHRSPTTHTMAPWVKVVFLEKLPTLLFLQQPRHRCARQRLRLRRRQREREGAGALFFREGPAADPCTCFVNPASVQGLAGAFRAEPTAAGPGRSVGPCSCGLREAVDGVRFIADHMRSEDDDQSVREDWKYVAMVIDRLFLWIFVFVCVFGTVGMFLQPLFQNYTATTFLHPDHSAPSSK

This assay deals with CNS nicotinic receptors (Rattus norvegicus, UniProt P09483+P12390). Nature of the assay: Determination of binding to relevant receptor sites. The settings on record: read-out: Ki (inhibition constant, receptor binding); calculated from the IC50 values using the method of Cheng et al.; techniques of U.S. Pat. No. 5,597,919.

SMILES strings stand for the structures.

As to `Oc1ccc(Oc2cncc(/C=C/[C@@H]3CCCN3)c2)cc1`, the Ki (commonly a measure of affinity in units of concentration, obtained from inhibition or displacement) is 20 nM.

On to `C(#C[C@@H]1CCCN1)c1cncnc1`, for which the Ki is 46 nM.
